Assay [1] addresses T1, MART1 (wild-type peptide) peptide on HLA-A*02:01 (human).
T1 peptide: AAGIGILTV
Description: IL-2 ELISPOT.

Assay [2] has as its target T1, MART1 (wild-type peptide) peptide on …. Briefly: graded A2/MART1 multimer.
The target is the same in assay [3]. Description: IL-2 ELISPOT.
Assay [4] has the same target. Description: graded A2/MART1 multimer.

Read-outs that look alike come from different tables or passages of the source.

B1: SIG35α / TRBV27 Cl.794 (TCR)
alpha TRAV12-2 J35 CDR3: CAVSIGFGNVL
beta TRBV27 TRBJ1-2 CDR3: CASSLLGDYGYTF
Turning to B1, the results for the EC50 of peptide in assay [1] and in assay [3] were 160 nM and 120 nM, respectively. The figures for the EC50 of multimer in assay [2] and in assay [4] were 0.06 µg/mL and 0.02 µg/mL, respectively.

B2: SIG35α / TRBV27 Cl.1606 (TCR)
alpha TRAV12-2 J35 CDR3: CAVSIGFGNVL
beta TRBV27 TRBJ2-7 CDR3: CASSLLGSYEQYF
B2: the EC50 of peptide stood at 120 nM in assay [1] and 160 nM in assay [3]. Besides, the EC50 of multimer in assay [2] turned out to be 0.01 µg/mL; in assay [4], 0.006 µg/mL.

B3: SIG35α / TRBV27 Cl.1593 (TCR)
alpha TRAV12-2 J35 CDR3: CAVSIGFGNVL
beta TRBV27 TRBJ1-5 CDR3: CASGNNQPQHF
Take B3: the EC50 of multimer is 0.01 µg/mL in assay [2] and 0.006 µg/mL in assay [4]. The same molecule yielded an EC50 of peptide in assay [3] of 440 nM.

B4: SIG35α / TRBV27 Cl.1574 (TCR)
alpha TRAV12-2 J35 CDR3: CAVSIGFGNVL
beta TRBV27 TRBJ1-1 CDR3: CASSPWERINTEAFF
Regarding B4, the EC50 of peptide in assay [1] came to 150 nM; in assay [3], 350 nM. Besides, the EC50 of multimer in assay [2] came to 0.1 µg/mL; in assay [4], 0.03 µg/mL.

B5: SIG35α / TRBV27 Cl.758 (TCR)
alpha TRAV12-2 J35 CDR3: CAVSIGFGNVL
beta TRBV27 TRBJ2-2 CDR3: CASSPRLAGDGELFF
Turning to B5, the EC50 of peptide came to 460 nM in assay [1] and 1600 nM in assay [3]. The EC50 of multimer in assay [2] worked out at 2.7 µg/mL; in assay [4], 0.06 µg/mL.

B6: SIG35α / TRBV27 Cl.1086 (TCR)
alpha TRAV12-2 J35 CDR3: CAVSIGFGNVL
beta TRBV27 TRBJ1-2 CDR3: CASSLHGPGGYTF
With B6, the figures for the EC50 of multimer in assay [2] and in assay [4] were 0.04 µg/mL and 0.01 µg/mL, respectively. In assay [3], this molecule came in with an EC50 of peptide of 2400 nM.

B7: SIG35α / TRBV27 Cl.788 (TCR)
alpha TRAV12-2 J35 CDR3: CAVSIGFGNVL
beta TRBV27 TRBJ2-7 CDR3: CASGPSYEQYF
In the case of B7, the EC50 of peptide in assay [1] came out at 570 nM; in assay [3] it was 2900 nM. Also, the figures for the EC50 of multimer in assay [2] and in assay [4] were 0.05 µg/mL and 0.01 µg/mL, respectively.

B8: SIG35α / TRBV27 Cl.413 (TCR)
alpha TRAV12-2 J35 CDR3: CAVSIGFGNVL
beta TRBV27 TRBJ1-4 CDR3: CASSVFGGDMGEKLFF
B8 returned an EC50 of peptide in assay [1] of 10000 nM.

B9: SIG35α / TRBV27 Cl.1599 (TCR)
alpha TRAV12-2 J35 CDR3: CAVSIGFGNVL
beta TRBV27 TRBJ1-1 CDR3: CASSFLGAMAEAFF
B9 came in with an EC50 of peptide in assay [1] of 160 nM. Also, the EC50 of multimer in assay [2] came out at 0.06 µg/mL; in assay [4], 0.02 µg/mL.

B10: SIG35α / TRBV27 Cl.523 (TCR)
alpha TRAV12-2 J35 CDR3: CAVSIGFGNVL
beta TRBV27 TRBJ2-7 CDR3: CASGSYEQYF
In assay [1], B10 had an EC50 of peptide of 2700 nM. The EC50 of multimer in assay [4] was found to be 0.3 µg/mL.

The values above are taken from publication PMC4369446 (2015).
